Results on two compounds are retold here after PMC10104807, “Modulation of tau tubulin kinases (TTBK1 and TTBK2) impacts ciliogenesis” (Scientific Reports, 2023).

By UniProt entry, the sequences of proteins in these tests, tags left out.
UniProt Q5TCY1, whole entry: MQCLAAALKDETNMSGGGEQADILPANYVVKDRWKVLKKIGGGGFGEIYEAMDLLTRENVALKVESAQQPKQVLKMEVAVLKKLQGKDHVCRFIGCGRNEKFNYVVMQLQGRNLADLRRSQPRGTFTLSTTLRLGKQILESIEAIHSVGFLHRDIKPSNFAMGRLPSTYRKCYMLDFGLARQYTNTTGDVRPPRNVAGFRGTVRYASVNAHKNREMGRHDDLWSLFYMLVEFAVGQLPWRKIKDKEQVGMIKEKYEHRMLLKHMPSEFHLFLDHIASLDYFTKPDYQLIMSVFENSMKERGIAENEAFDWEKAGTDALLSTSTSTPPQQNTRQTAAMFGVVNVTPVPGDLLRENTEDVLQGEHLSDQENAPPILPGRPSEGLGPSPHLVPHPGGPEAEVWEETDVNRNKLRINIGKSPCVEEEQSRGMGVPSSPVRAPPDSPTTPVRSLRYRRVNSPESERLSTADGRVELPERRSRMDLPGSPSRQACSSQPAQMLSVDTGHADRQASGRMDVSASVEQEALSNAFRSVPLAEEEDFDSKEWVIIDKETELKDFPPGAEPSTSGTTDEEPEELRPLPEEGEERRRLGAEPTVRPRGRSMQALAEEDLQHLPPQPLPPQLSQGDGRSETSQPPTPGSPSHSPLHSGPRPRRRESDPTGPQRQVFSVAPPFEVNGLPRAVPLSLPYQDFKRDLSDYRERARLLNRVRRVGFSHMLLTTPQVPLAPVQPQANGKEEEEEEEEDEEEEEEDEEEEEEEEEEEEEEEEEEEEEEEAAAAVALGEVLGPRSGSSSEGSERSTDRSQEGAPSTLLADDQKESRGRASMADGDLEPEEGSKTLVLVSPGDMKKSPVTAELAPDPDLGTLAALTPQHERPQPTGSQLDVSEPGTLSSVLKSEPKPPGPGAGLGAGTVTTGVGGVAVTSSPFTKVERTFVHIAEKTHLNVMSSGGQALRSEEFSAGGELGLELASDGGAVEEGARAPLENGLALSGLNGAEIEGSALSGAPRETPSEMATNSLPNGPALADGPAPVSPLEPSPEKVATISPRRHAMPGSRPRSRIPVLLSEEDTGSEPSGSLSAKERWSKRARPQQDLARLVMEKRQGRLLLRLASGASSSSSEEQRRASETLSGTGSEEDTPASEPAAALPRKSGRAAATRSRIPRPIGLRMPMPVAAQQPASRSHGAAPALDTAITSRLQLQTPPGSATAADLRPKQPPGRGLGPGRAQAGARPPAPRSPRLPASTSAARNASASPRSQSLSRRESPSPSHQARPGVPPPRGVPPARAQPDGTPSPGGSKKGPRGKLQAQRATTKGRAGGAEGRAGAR
UniProt O14578, whole entry: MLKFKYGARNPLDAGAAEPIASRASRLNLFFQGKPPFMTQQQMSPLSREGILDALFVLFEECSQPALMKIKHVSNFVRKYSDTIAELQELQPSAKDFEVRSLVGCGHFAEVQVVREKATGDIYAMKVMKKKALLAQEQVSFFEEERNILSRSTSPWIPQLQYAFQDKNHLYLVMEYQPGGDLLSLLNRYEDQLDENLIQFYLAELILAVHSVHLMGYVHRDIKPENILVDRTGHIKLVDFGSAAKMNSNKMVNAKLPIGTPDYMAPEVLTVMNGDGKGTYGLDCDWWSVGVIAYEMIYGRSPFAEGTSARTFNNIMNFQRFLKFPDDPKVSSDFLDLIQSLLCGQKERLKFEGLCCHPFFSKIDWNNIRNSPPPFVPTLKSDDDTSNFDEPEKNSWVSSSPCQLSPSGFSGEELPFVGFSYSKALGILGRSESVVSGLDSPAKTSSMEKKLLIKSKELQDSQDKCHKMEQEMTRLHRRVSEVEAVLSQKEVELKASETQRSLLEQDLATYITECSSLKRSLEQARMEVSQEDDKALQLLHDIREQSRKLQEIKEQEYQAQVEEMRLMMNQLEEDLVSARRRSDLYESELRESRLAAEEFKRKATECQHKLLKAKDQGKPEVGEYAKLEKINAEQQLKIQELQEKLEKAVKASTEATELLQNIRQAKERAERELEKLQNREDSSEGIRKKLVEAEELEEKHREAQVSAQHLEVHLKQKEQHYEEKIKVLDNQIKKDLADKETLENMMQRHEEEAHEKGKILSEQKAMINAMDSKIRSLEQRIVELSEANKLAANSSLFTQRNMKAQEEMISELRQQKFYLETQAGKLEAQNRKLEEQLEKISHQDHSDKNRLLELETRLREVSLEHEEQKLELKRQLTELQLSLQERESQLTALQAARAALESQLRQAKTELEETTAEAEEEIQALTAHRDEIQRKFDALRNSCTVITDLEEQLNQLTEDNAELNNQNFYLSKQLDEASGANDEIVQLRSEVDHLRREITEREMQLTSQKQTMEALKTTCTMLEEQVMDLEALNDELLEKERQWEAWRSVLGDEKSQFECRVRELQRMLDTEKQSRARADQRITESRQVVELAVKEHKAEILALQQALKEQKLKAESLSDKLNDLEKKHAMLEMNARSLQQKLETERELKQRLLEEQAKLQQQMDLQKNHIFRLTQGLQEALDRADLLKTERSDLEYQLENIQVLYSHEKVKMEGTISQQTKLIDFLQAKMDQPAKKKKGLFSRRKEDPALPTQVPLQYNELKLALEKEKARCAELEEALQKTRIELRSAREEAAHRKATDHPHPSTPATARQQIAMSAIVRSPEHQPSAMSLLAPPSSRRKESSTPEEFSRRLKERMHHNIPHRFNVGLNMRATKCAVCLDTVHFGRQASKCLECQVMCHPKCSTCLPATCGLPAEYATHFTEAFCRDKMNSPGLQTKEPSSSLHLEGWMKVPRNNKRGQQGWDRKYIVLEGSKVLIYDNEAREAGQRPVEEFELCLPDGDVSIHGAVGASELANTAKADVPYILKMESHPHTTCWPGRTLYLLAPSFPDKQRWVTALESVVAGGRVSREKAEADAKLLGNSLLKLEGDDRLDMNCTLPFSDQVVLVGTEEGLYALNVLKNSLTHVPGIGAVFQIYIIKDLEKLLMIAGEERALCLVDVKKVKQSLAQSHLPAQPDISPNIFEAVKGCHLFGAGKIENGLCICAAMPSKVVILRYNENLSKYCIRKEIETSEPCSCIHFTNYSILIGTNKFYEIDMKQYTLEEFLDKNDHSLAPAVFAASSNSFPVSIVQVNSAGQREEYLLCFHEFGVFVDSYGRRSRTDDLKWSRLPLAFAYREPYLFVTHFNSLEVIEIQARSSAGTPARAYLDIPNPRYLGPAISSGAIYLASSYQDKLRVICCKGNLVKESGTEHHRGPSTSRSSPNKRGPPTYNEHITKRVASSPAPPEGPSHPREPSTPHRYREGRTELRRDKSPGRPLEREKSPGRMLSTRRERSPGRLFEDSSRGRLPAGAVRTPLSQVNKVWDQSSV
UniProt P48730, whole entry: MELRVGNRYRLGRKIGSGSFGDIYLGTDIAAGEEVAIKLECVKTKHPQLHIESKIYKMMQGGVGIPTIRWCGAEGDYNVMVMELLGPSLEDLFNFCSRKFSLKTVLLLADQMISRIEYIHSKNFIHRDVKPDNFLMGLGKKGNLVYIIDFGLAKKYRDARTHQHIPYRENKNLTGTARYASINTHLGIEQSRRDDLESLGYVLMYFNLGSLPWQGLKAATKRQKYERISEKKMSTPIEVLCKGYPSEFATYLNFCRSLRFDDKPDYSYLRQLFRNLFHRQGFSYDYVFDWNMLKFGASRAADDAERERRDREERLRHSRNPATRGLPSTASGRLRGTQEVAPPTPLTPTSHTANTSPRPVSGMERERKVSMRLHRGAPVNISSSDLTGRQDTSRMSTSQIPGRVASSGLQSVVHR
UniProt O96017, whole entry: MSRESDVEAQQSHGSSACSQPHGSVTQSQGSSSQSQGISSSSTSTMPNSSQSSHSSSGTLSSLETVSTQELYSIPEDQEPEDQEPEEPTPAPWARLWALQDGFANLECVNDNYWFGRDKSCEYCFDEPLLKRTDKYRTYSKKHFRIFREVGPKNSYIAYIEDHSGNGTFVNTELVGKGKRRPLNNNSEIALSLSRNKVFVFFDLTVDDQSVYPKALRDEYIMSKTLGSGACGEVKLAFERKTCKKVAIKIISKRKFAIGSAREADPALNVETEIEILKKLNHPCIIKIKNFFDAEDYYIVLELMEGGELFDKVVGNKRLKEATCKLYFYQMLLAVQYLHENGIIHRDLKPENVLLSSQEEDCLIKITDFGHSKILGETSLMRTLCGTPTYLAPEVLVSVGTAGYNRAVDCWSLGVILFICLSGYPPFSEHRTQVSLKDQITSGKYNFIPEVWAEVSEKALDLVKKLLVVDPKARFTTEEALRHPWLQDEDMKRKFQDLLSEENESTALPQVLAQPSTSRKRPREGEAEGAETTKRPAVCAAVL
UniProt O60331, whole entry: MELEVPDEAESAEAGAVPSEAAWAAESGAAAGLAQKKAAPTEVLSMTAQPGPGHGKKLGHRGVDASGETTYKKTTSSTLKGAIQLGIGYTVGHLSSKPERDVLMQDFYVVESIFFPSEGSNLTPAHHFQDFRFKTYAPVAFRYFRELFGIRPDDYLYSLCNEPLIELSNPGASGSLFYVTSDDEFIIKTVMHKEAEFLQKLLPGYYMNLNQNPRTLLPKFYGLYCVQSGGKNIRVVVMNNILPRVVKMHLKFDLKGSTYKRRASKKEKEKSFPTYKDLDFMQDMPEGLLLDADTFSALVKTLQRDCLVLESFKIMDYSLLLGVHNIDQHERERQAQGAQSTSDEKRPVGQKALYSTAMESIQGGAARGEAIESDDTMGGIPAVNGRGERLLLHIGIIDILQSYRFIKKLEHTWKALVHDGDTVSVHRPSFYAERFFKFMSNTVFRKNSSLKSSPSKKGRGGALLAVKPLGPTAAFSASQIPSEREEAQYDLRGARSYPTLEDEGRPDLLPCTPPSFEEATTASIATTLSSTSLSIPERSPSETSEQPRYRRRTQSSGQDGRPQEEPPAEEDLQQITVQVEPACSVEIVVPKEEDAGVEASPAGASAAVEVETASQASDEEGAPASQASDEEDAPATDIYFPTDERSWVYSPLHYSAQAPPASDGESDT
UniProt Q56UN5, whole entry: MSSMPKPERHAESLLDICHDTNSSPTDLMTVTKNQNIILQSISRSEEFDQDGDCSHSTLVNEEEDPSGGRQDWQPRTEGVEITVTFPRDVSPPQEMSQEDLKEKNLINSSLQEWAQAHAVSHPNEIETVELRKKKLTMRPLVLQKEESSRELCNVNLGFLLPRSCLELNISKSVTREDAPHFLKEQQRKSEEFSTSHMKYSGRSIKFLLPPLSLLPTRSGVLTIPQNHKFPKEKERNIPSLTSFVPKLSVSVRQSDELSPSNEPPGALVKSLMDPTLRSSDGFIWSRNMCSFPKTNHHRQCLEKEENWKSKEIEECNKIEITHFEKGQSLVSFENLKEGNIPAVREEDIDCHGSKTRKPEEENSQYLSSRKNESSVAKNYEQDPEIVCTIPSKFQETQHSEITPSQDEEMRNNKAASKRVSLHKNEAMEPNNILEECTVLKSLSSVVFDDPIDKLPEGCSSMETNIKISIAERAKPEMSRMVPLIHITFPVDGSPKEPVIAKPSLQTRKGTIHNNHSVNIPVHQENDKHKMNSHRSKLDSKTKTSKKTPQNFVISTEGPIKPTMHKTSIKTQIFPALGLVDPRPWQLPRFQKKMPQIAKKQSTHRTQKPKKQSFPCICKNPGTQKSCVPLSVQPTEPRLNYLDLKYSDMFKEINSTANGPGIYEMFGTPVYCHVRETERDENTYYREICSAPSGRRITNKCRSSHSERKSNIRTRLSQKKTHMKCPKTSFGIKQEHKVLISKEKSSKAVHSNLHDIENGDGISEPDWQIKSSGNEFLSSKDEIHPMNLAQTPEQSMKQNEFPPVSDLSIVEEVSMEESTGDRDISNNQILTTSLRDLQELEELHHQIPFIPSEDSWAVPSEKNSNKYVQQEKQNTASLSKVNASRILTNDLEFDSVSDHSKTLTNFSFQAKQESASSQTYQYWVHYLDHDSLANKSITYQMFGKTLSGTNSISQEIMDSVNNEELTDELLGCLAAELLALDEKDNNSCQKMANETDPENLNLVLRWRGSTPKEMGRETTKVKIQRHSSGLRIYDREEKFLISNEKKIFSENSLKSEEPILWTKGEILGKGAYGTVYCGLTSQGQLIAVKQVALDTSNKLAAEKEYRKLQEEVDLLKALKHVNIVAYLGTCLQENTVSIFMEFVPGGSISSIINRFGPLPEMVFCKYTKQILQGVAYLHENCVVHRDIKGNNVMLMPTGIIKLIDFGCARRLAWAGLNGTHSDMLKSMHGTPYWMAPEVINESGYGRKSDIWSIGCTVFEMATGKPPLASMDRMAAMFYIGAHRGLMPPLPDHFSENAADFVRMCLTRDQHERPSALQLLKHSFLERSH
UniProt Q96PN8, whole entry: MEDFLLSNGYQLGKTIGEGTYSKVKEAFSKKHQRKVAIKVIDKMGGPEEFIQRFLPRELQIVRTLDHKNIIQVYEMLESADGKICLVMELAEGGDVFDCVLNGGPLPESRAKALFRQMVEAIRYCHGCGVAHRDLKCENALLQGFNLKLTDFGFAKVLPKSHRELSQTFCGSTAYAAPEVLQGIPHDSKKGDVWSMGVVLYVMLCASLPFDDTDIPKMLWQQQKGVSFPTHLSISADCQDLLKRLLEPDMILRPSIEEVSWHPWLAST

Several values for one entry are separate records, joined by “and”; a condition that tells them apart may be missing. Equal entries are not always repeated. Where two headings read alike, the source gives them in different places.

Experiment [1] deals with NLuc-TTBK1 (Homo sapiens, UniProt Q5TCY1). The experiment can be described thus: TTBK1 NanoBRET cellular target engagement assay in HEK293 cells. It counts as cell-based. The following applies: 2 μM tracer 29. (In general: Bioluminescence resonance energy transfer reports proximity on the nanometre scale.)
In experiment [2] the target is CSNK1E (Homo sapiens, UniProt P49674). The experiment can be described thus: Eurofins enzymatic radiometric kinase assay. The following applies: read-out: CSNK1E IC50, ATP at Km.
Experiment [3] deals with T1, CLK2 (Homo sapiens, UniProt P49760). Description: Eurofins enzymatic radiometric kinase assay. The following applies: read-out: CLK2 IC50, ATP at Km.
The target in experiment [4] is CRIK (Homo sapiens, UniProt O14578). Description: Eurofins enzymatic radiometric kinase assay. The note with it: read-out: CRIK IC50, ATP at Km.
Experiment [5] addresses T2, CSNK1D (Homo sapiens, UniProt P48730). Description: Eurofins enzymatic radiometric kinase assay. The note with it: read-out: CSNK1D IC50, ATP at Km.
The target of experiment [6] is CHK2 (Homo sapiens, UniProt O96017). The experiment can be described thus: Eurofins enzymatic radiometric kinase assay. The following applies: read-out: CHK2 IC50, ATP at Km.
The target in experiment [7] is T3, STK16 (Homo sapiens, UniProt O75716). Description: Eurofins enzymatic radiometric kinase assay. The following applies: read-out: STK16 IC50, ATP at Km.
Experiment [8] addresses MKK4 (Homo sapiens, UniProt P45985). Description: Eurofins enzymatic radiometric kinase assay. The note with it: read-out: MKK4 IC50, ATP at Km.
For experiment [9], the target named is PKD3 (Homo sapiens, UniProt O94806). The experiment can be described thus: Eurofins enzymatic radiometric kinase assay. The note with it: read-out: PKD3 IC50, ATP at Km.
For experiment [10], the target named is T4, PIP5K1C (Homo sapiens, UniProt O60331). The experiment can be described thus: Eurofins enzymatic radiometric kinase assay. The following applies: read-out: PIP5K1C IC50, ATP at Km.
In experiment [11] the target is NLuc-TTBK2 (Homo sapiens, UniProt Q6IQ55). Description: TTBK2 NanoBRET cellular target engagement assay in HEK293 cells. It counts as cell-based. The note with it: read-out: TTBK2 intact cell NB IC50; intact HEK293 cells, 2 μM tracer 29.
Experiment [12] concerns primary cilia on human iPSCs. The experiment can be described thus: Cilia imaging on iPSCs. The note with it: 72 h starvation, inhibitor 0.1–1 μM for 24 h or 72 h.
The target of experiment [13] is MYLK4 (Homo sapiens, UniProt Q86YV6). The experiment can be described thus: RBC radiometric HotSpot kinase assay. The following applies: read-out: MYLK4 IC50, Enzymatic, ATP at Km, 10-pt curve.
Experiment [14] has as its target RIPK5 (Homo sapiens, UniProt Q6XUX3). Description: RBC radiometric HotSpot kinase assay. The note with it: read-out: RIPK5 IC50, Enzymatic, ATP at Km, 10-pt curve.
Experiment [15] concerns the target T5, YSK4 (Homo sapiens, UniProt Q56UN5). Description: RBC radiometric HotSpot kinase assay. The note with it: read-out: YSK4 IC50, Enzymatic, ATP at Km, 10-pt curve.
Experiment [16] deals with PIKfyve (Homo sapiens, UniProt Q9Y2I7). Description: DiscoverX scanMAX binding assay. The note with it: 1 μM.
Experiment [17] deals with CIT (Homo sapiens, UniProt O14578). The experiment can be described thus: DiscoverX scanMAX binding assay. The note with it: 1 μM.
Experiment [18] has as its target T1, CLK2. Description: DiscoverX scanMAX binding assay. The following applies: 1 μM.
The target in experiment [19] is PRKD3 (Homo sapiens, UniProt O94806). The experiment can be described thus: DiscoverX scanMAX binding assay. The note with it: 1 μM.
Experiment [20] concerns the target TSSK3 (Homo sapiens, UniProt Q96PN8). Description: DiscoverX scanMAX binding assay. The note with it: 1 μM.
Experiment [21] addresses T2, CSNK1D. Description: DiscoverX scanMAX binding assay. The following applies: 1 μM.
Experiment [22] concerns the target TAOK1 (Homo sapiens, UniProt Q7L7X3). The experiment can be described thus: DiscoverX scanMAX binding assay. The following applies: 1 μM.
Experiment [23] concerns the target T3, STK16. Description: DiscoverX scanMAX binding assay. The note with it: 1 μM.
For experiment [24], the target named is T5, YSK4. Description: DiscoverX scanMAX binding assay. The note with it: 1 μM.
The target of experiment [25] is CHEK2 (Homo sapiens, UniProt O96017). Description: DiscoverX scanMAX binding assay. The following applies: 1 μM.
In experiment [26] the target is PIP5K2C (Homo sapiens, UniProt Q8TBX8). The experiment can be described thus: DiscoverX scanMAX binding assay. The following applies: 1 μM.
The target of experiment [27] is MEK4 (Homo sapiens, UniProt P45985). Description: DiscoverX scanMAX binding assay. The following applies: 1 μM.
Experiment [28] has as its target T4, PIP5K1C. Description: DiscoverX scanMAX binding assay. The note with it: 1 μM.
Experiment [29] has as its target MAP3K2 (Homo sapiens, UniProt Q9Y2U5). The experiment can be described thus: DiscoverX scanMAX binding assay. The following applies: 1 μM.
The target of experiment [30] is PAK7 (Homo sapiens, UniProt Q9P286). Description: DiscoverX scanMAX binding assay. The note with it: 1 μM.
The target in experiment [31] is PAK6 (Homo sapiens, UniProt Q9NQU5). Description: DiscoverX scanMAX binding assay. The following applies: 1 μM.
The target in experiment [32] is TAOK3 (Homo sapiens, UniProt Q9H2K8). Description: DiscoverX scanMAX binding assay. The note with it: 1 μM.
The target of experiment [33] is PAK4 (Homo sapiens, UniProt O96013). Description: DiscoverX scanMAX binding assay. The following applies: 1 μM.
The target in experiment [34] is MAP3K3 (Homo sapiens, UniProt Q99759). Description: DiscoverX scanMAX binding assay. The note with it: 1 μM.

The term IC50 denotes the midpoint of a concentration-inhibition curve. Consider `CCC(O)(C#Cc1ccc2[nH]c3c(c2c1)-c1nc(N)ncc1CCC3)CC`, for which the IC50 is 12.7 µM in experiment [1] (read-out: TTBK1 intact cell NB IC50, intact HEK293 cells); < 4.1 µM and 2.11 µM in experiment [1] (read-out: TTBK1 permeabilized cell NB IC50, permeabilized HEK293 cells (digitonin)); 0.82 µM in experiment [2]; 2.8 µM in experiment [3]; over 10 µM in experiment [4]; 0.42 µM in experiment [5]. Besides, the IC50 in experiment [6] was 4.1 µM; in experiment [7], 0.3 µM; in [8], over 10 µM; in experiment [9], 1.1 µM; in experiment [10], 2.1 µM; in [11] it was 6.4 µM. Also, the IC50 is 0.09 µM and < 0.1 µM in experiment [13]; 1.3 µM in experiment [14]; 0.051 µM and < 0.1 µM in experiment [15]. In experiment [12], the “percentage of ciliated cells / expression of primary cilia” value is “time- and dose-dependent response”. Further, the “PIKFYVE % control at 1000nM / DiscoverX PoC value” in [16] is 0 % control. In experiment [17], the “CIT (CRIK) % control at 1000nM / DiscoverX PoC value” is 30 % control. Moreover, the “CLK2 DiscoverX PoC value” in experiment [18] was 27 % control. In [19], the “PRKD3 (PKD3) % control at 1000nM / DiscoverX PoC value” worked out at 0 % control. Besides, the “TSSK3 % control at 1000nM / DiscoverX PoC value” in [20] came out at 24 % control. For the same compound, the “CSNK1D % control at 1000nM / DiscoverX PoC value” in [21] is given as 21 % control. For the same compound, the “TAOK1 % control at 1000nM / DiscoverX PoC value” in [22] is given as 24 % control. The “STK16 DiscoverX PoC value” in experiment [23] came to 28 % control. Besides, in [24], the “YSK4 % control at 1000nM / DiscoverX PoC value” is reported as 1.1 % control. Also, the “CHEK2 (CHK2) % control at 1000nM / DiscoverX PoC value” in [25] is given as 22 % control. The “PIP5K2C (PI5P4Kγ) % control at 1000nM / DiscoverX PoC value” in experiment [26] was 15 % control. Besides, the “MEK4 (MKK4) % control at 1000nM / DiscoverX PoC value” in [27] turned out to be 3.5 % control. Also, the “PIP5K1C % control at 1000nM / DiscoverX PoC value” in experiment [28] was 0 % control.

Consider `CCC(C)(O)C#Cc1ccc2[nH]c3c(c2c1)-c1nc(N)ncc1CCC3` (racemic), for which, in experiment [29], the “MAP3K2 % control at 1000nM” value was 2.2 % control. Moreover, the “PAK7 % control at 1000nM” value in experiment [30] is recorded as 1.8 % control. The “PIKFYVE % control at 1000nM / DiscoverX PoC value” in [16] came out at 0 % control. The “CIT (CRIK) % control at 1000nM / DiscoverX PoC value” in experiment [17] was 2.4 % control. The “PAK6 % control at 1000nM” value in experiment [31] is 6.7 % control. Moreover, the “TAOK3 % control at 1000nM” value in [32] worked out at 7.8 % control. In experiment [20], the “TSSK3 % control at 1000nM / DiscoverX PoC value” was 2.4 % control. Moreover, the “CSNK1D % control at 1000nM / DiscoverX PoC value” in experiment [21] came to 8.2 % control. In addition, the “TAOK1 % control at 1000nM / DiscoverX PoC value” in [22] is on record as 3.1 % control. Moreover, in [33], the “PAK4 % control at 1000nM” value came out at 4.3 % control. Also, the “YSK4 % control at 1000nM / DiscoverX PoC value” in experiment [24] is on record as 0 % control. Moreover, the “CHEK2 (CHK2) % control at 1000nM / DiscoverX PoC value” in experiment [25] worked out at 4.4 % control. The “PIP5K2C (PI5P4Kγ) % control at 1000nM / DiscoverX PoC value” in experiment [26] is listed as 0.6 % control. Moreover, the “MAP3K3 % control at 1000nM” value in experiment [34] stood at 6.1 % control. Moreover, in [27], the “MEK4 (MKK4) % control at 1000nM / DiscoverX PoC value” is 5.5 % control. For the same compound, in experiment [28], the “PIP5K1C % control at 1000nM / DiscoverX PoC value” is listed as 0 % control.
